The test relates to LN229, LN18, LN428 and SF763 GBM lines. The test is described as follows: Cell-cycle phase distribution and Annexin V apoptosis in four GBM lines. The class given is cell-based. As to the method: Results are expressed as relative fold change in firefly (FF) luciferase activity and the mean and +S.D. are shown for three independent experiments. (B) Growth inhibition of GBM cell lines following 48 h culture in C11. Data represent mean±S.D. of three independent experiments. […] Control cell were treated with DMSO vehicle. Data are means±S.D., n=3. […] Percent apoptotic cells as determined via Annexin V staining are also shown below each graph. One of three experiments with similar results is shown.

The text below walks through data of patent US20210220331A1, “INHIBITORS OF IRES-MEDIATED PROTEIN SYNTHESIS” (The Regents of the University of California, priority 2016, published 2021).

In the case of `CC(C)n1nc(-c2cc3cc(O)ccc3[nH]2)c2c(N)ncnc21` [PP242, 2-(4-Amino-1-isopropyl-1H-pyrazolo[3,4-d]pyrimidin-3-yl)-1H-indol-5-ol], the G1 arrest result is on record as “increased G1 arrest” and the “percentage of apoptotic cells” value is listed as “induced the percentage of apoptotic cells”.
